Measured values: patent US7354936B2, “2-phenylpyran-4-one derivatives” (Almirall AG, priority 2000, dated 2008)

Chains of the proteins cited; added tags and fusions are not shown. Residues count along the entry.
UniProt P23219, 24-599: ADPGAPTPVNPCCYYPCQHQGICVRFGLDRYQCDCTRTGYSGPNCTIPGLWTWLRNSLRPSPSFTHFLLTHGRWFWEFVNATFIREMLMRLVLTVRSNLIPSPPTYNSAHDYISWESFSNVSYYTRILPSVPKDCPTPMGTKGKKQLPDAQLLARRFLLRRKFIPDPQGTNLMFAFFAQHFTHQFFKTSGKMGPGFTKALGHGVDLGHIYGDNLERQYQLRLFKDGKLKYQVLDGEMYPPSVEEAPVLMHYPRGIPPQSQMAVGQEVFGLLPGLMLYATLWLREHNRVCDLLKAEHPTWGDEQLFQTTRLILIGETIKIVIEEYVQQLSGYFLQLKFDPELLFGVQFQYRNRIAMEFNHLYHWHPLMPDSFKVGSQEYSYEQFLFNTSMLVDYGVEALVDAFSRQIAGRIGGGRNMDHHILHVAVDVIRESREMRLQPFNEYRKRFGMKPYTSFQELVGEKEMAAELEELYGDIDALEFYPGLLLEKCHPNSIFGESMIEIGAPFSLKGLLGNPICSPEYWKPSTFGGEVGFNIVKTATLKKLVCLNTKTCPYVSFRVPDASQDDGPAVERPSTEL

Molecular target: T1, COX-1 (Homo sapiens, UniProt P23219)
T1 construct: Fresh blood from healthy volunteers; from tissue; host or cells: human whole blood (heparinized) from healthy volunteers
Test: COX-1 activity in human whole blood (TXB2, calcium ionophore A23187)
Assay type: cell-based
Conditions: 1 h at 37° C., TXB2 by ELISA

Q: For `Cc1cc(=O)c(Oc2ccc(F)cc2C)c(-c2ccc(S(C)(=O)=O)cc2)o1` [Example 1, 3-(4-Fluoro-2-methylphenoxy)-2-(4-methanesulfonylphenyl)-6-methyl pyran-4-one], which IC50 is on record?
A: Its IC50 is 21.2 µM.
